# ChEMBL document CHEMBL2062428
# The chains behind the UniProt entries cited, without tags or fusion partners.
# UniProt P23219, whole entry: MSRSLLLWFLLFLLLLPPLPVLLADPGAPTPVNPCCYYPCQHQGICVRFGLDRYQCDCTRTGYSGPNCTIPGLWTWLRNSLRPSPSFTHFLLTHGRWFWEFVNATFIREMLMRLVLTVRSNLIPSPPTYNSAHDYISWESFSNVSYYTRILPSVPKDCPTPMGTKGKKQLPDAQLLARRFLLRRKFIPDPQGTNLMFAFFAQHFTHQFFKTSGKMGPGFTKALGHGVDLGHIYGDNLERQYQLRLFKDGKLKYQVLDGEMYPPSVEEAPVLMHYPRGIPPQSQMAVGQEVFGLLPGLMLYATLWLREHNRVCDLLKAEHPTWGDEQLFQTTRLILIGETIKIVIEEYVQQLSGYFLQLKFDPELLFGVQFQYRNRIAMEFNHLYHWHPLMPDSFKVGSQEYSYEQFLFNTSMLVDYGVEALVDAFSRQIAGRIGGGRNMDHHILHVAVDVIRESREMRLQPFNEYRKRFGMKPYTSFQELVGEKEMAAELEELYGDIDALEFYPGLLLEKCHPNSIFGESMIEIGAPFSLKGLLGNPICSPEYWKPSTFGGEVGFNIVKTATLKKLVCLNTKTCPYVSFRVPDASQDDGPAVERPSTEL
# Key:
# [1] = biological target: Prostaglandin G/H synthase 1 (Homo sapiens, UniProt P23219); assay type: cell-based, OVCAR-3
# [2] = Selectivity ratio of IC50 for mouse COX2 to IC50 for ovine COX1
Compound,IC50 [1] [µM],Ratio IC50 [2]
O=C(CC1=C/C(=C\c2ccc(-c3ccccc3)cc2)c2ccc(F)cc21)NS(=O)(=O)C(F)(F)F,0.495,30
O=C(O)CC1=C/C(=C\c2ccc(-c3ccccc3)cc2)c2ccc(F)cc21,0.3,–
